Values quoted from earlier work as cited in patent US9566341B1, “Compounds including Cox inhibitor moiety and enhanced delivery of active drugs using same” (University of Kentucky Research Foundation, priority 2011, dated 2017).

Conditions: different animal models; cited from earlier work

## Oc1ccc2c3c1O[C@H]1[C@H](O)CC[C@@]4(O)[C@@H](C2)N(CC2CC2)CC[C@]314 [NTXOL, 6-β-Naltrexol, reference compound]
  duration of action relative to NTX: 4-9 times
